# Test system: Hashimoto's patients
# Assay: Hashimoto's thyroiditis case reports
# Details: titrated to 4.5 mg; from 300
smiles,measurement,value
"O=C1CC[C@@]2(O)[C@H]3Cc4ccc(O)c5c4[C@@]2(CCN3CC2CC2)[C@H]1O5 [Immediate release naltrexone, naltrexone]","B12, person, Hashimoto's",1785

# From patent US11419865B2, “Method for inducing a sustained immune response” (Cytocom Inc., priority 2016, dated 2022)
